# scFv variants of Ab-14 (heavy chain) against a SARS-CoV-2 spike peptide

Values reported by Engelhart et al. 2022, doi:10.1038/s41597-022-01779-4 (FLAb copy).

Target: peptide PDVDLGDISGINAS, taken from heptad repeat 2 (HR2) of SARS-CoV-2 spike.

Parent: Ab-14, a human scFv built as VH, three GGGGS repeats, VL. Only the CDRs of the heavy chain vary.
VH: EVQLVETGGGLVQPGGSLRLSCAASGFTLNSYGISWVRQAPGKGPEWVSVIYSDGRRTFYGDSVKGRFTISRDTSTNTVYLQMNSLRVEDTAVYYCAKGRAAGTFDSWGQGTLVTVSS
VL: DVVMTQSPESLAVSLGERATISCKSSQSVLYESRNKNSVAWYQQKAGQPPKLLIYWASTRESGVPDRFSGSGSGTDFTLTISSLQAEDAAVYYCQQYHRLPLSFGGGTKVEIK

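Library AAYL49 holds single substitutions and randomly drawn double and triple substitutions in the CDRs. The scFvs were displayed on barcoded MATa yeast, the peptide on MATalpha yeast. The frequency of each diploid, read from paired DNA barcodes, reflects how well the two displayed proteins bind. Scores were corrected for input abundance and mapped to Kd with protein pairs of known affinity run in the same pool. Mating was done three times.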

Positions count from residue 1 of the parent VH; Y32W puts W in place of Y. The Kd shown is the geometric mean over detected replicates; a lower Kd is a better binder. Where no diploid with the target was found in any replicate, the entry reads "not detected": below detection, most likely a poor binder, though not proof of it. Three control strains display no target. For library AAYL49, 15% of the pairings with them gave a signal, with a median of 11 µM and one signal in twenty below 680 nM, so weak values seen in few replicates may be background. Also given: how often the same scFv was detected with the empty control strains.

changes | Kd (apparent) | seen in | signal with controls
Y32W G33A T104A | not detected | 0/3 | 1/9
I51R R100Y T104W | 46 µM | 1/3 | 1/9
S31R A102T F105W | 96 nM | 3/3 | 1/9
F27W R57V S107I | not detected | 0/3 | 0/9
D54R G55L Y60G | 37 µM | 2/3 | 1/9
I51T R100S F105H | 400 nM | 3/3 | 7/9
T28F D54N A102M | not detected | 0/3 | 2/9
Y32F R100S | 7.9 nM | 3/3 | 2/9
T28W N30A R57E | 880 nM | 1/3 | 1/9
Y32A S63L | 1.8 µM | 1/3 | 0/9
I34K R100T T104H | 46 µM | 1/3 | 1/9
Y32E D62V K65R | 3.5 µM | 2/3 | 4/9
R57A K65Q G103K | not detected | 0/3 | 1/9
D62E G103Q F105W | 1.1 µM | 2/3 | 1/9
G26R N30M I51R | not detected | 0/3 | 1/9
G55M T104D D106L | 80 µM | 3/3 | 8/9
T28D G99Q T104D | not detected | 0/3 | 2/9
G33D I51S F105M | 31 µM | 2/3 | 6/9
G33H G55K R57P | 4.8 µM | 1/3 | 0/9
N30P D54M G61H | 160 µM | 2/3 | 3/9
T28I S35H R100A | 18 nM | 3/3 | 1/9
Y60K G61D A101N | not detected | 0/3 | 1/9
L29E S107E | not detected | 0/3 | 2/9
S53T R100H T104Q | not detected | 0/3 | 0/9
I51R D106V | not detected | 0/3 | 1/9
S35T R56Q S107E | not detected | 0/3 | 1/9
S31M F59H V64S | 500 nM | 1/3 | 0/9
G26V F27L S63Y | 21 µM | 1/3 | 2/9
A101V A102W S107P | 5.7 nM | 3/3 | 1/9
L29F R56W A102V | not detected | 0/3 | 0/9
T28V S53D D54L | not detected | 0/3 | 1/9
G26T F27Q T104L | not detected | 0/3 | 0/9
F27L S31A S107E | 99 nM | 3/3 | 0/9
L29G V50C S107R | 130 µM | 2/3 | 1/9
G55R T58M | 8.4 µM | 1/3 | 2/9
D54P A101L | not detected | 0/3 | 1/9
N30W R57V A102R | not detected | 0/3 | 0/9
G26D G61P V64G | not detected | 0/3 | 3/9
Y32G G99Y T104V | 2.5 µM | 1/3 | 2/9
S53I V64W | not detected | 0/3 | 1/9
G33P A101E S107F | not detected | 0/3 | 1/9
G99Q A101Y F105W | not detected | 0/3 | 1/9
N30H V50Q S53A | 4.2 µM | 1/3 | 0/9
G99D S107G | not detected | 0/3 | 0/9
G26S N30V K65N | 30 µM | 3/3 | 1/9
Y52R T104P | 590 µM | 1/3 | 0/9
S35T S53W T104R | not detected | 0/3 | 0/9
F27T A102K T104S | 26 nM | 3/3 | 0/9
S53W G99Q A102F | not detected | 0/3 | 0/9
G33I S53M F59E | 66 µM | 2/3 | 4/9
T28C R56K S63M | not detected | 0/3 | 1/9
Y32A G61L V64R | 7.1 µM | 1/3 | 1/9
N30R Y52L D54L | 5.4 µM | 1/3 | 0/9
G26K R100D A102H | not detected | 0/3 | 1/9
F27H T58K R100P | 900 nM | 3/3 | 4/9
S35L Y52M A101R | not detected | 0/3 | 3/9
G26I G55K R100I | not detected | 0/3 | 0/9
T28F F59M D106C | 33 µM | 3/3 | 7/9
G26N I51F A102E | 49 µM | 3/3 | 3/9
S35L G103A S107W | not detected | 0/3 | 0/9
R56A F59T V64P | not detected | 0/3 | 0/9
N30W D54H R100C | not detected | 0/3 | 0/9
G55V A102I T104R | 48 µM | 1/3 | 0/9
S31Q S35N A102P | 58 nM | 2/3 | 1/9
F27Q G33F T104K | not detected | 0/3 | 1/9
Y60E G99A R100V | not detected | 0/3 | 0/9
T28F L29G V64G | 750 µM | 1/3 | 1/9
F27V N30P D106N | not detected | 0/3 | 0/9
S31Y S35A S63M | not detected | 0/3 | 0/9
I51Y Y60S G103D | 540 nM | 1/3 | 0/9
G26S A102N D106F | 130 µM | 2/3 | 1/9
G26K G55R K65I | 13 µM | 1/3 | 1/9
S35R V64A A102N | not detected | 0/3 | 2/9
R57W Y60R S63P | 9.5 µM | 2/3 | 2/9
S31D Y32R R100Y | 98 µM | 2/3 | 5/9
L29Y F59I A101R | 7.5 µM | 1/3 | 1/9

Top 7 of the variants detected in all replicates, tightest first:

changes | Kd (apparent) | seen in | signal with controls
A101V A102W S107P | 5.7 nM | 3/3 | 1/9
Y32F R100S | 7.9 nM | 3/3 | 2/9
T28I S35H R100A | 18 nM | 3/3 | 1/9
F27T A102K T104S | 26 nM | 3/3 | 0/9
S31R A102T F105W | 96 nM | 3/3 | 1/9
F27L S31A S107E | 99 nM | 3/3 | 0/9
I51T R100S F105H | 400 nM | 3/3 | 7/9